Assay results as given in US20240041877A1, “DOSAGE REGIME AND METHOD FOR TREATING PULMONARY ARTERIAL HYPERTENSION” (Altavant Sciences GmbH, priority 2019, published 2024).

Assay: Study KAR5585-101 Part 1 (SAD): plasma pharmacokinetics after a single oral dose of KAR5585, fasting and fed (incl. dose proportionality and food effect)
Conditions: human, in vivo, 2000 mg, AUC0-24, 2000 mg KAR5585 single oral, fasted, Cohort 6, Mean

CCOC(=O)[C@@H]1CC2(CCN(c3cc(O[C@H](c4ccc(Cl)cc4-c4ccccc4)C(F)(F)F)nc(N)n3)CC2)CN1 [KAR5585, (S)-ethyl 8-(2-amino-6-((R)-1-(5-chloro-[1,1′-biphenyl]-2-yl)-2,2,2-trifluoroethoxy)pyrimidin-4-yl)-2,8-diazaspiro[4.5]decane-3-carboxylate]
AUC(0-t): 806 ng·h/mL
